# Source: PubChem BioAssay (National Center for Advancing Translational Sciences (NCATS))
# A selection: hits, their analogues and other compounds. The true share with any hit is near 3.7%.
# Nrf2 activator: activates Nrf2 signaling; AREc32 ARE-luciferase reporter (MCF7-derived line), luminescence, 24 h; Potency, µM (series often up to 46.1 µM), without a hit: at the top dose activation, hits mostly activators; 410,000 tested, 0.31% active; also: potency is read from the fitted curve at half-maximal effect; % of control where 0% means no effect; nearly all actives have a fitted effect of over 65% in size
#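 Luciferase luminescence (Steady-Glo, 30 min at room temperature) served as the read-out of ARE activation in AREc32 cells treated with compounds for 24 hr at 37 deg C.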
# Nrf2 inh: Nrf2 pathway inhibition. A549 ARE-Fluc reporter, luciferase luminescence, 18-24 h. 360,000 tested, 2.1% active. Potency, µM (series often up to 46 µM), for the others: at the top dose activity change, negative = inhibition, most hits filed as inhibitors. AID 504444; also: potency is read from the fitted curve at half-maximal effect; % is scaled to controls: 0 for no effect and ±100 for the full control effect; nearly all actives have a fitted effect of over 60% in size
#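 Nrf2 activity is the BugLite luminescence, read 15 min after reagent at room temperature, following CellTiter-Fluor cytotoxicity readout (30 min, 37C). Compound titrations were applied for 18-24 h to 5000 A549 ARE_Fluc cells/well in 5% FBS OPTI-MEM.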
# ClpP mod: qHTS Assay for Activators of ClpP; Potency, µM (top dose mostly 57.5 µM), without a hit: at the highest dose activity change, negative = active; purified B. subtilis ClpP, FRET peptide cleavage, 20 min; AID 651965, 2013; ATP-dependent Clp protease proteolytic subunit (Bacillus subtilis (strain 168)), P80244; 340,000 tested, 1.9% active; active = well fitted falling curve with a large enough effect; inconclusive = small, poorly fitted or top-dose-only effect; inactive = no such curve, though single readings can be large or run the other way; also: potency is read from the fitted curve at half-maximal effect; the source files actives as falling curves though it sought activators and does not explain the sign; nearly all actives have a fitted effect of over 65% in size
#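 FRET quenching reversal measured ClpP activation: 10 microg/mL B. subtilis ClpP at pH 8 with the FRET-FV decapeptide, read at 430 nm after 320 nm excitation. The 20-min minus 0-min signal was scaled between DMSO/no-enzyme wells and ADEP (5.8 microM final).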
# A549 tox: A549 cytotoxicity, counter-screen for Nrf2 inhibitors | Potency, µM (doses to about 46 µM), inactives show at the top dose activity change, negative = cytotoxicity, most hits filed as inhibitors | 390,000 tested, 0.16% active | A549 ARE-Fluc cells, CellTiter-Fluor viability, 18-24 h; also: potency is read from the fitted curve at half-maximal effect; % is scaled to controls: 0 for no effect and ±100 for the full control effect
#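 A549 ARE_Fluc cells in 5% FBS OPTI-MEM were exposed to compounds in concentration-response for 18-24 h at 37 deg C. Viability was read by CellTiter-Fluor fluorescence (Ex 405/Em 525) after 30 min, before the luciferase read.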
# IL2 activator: IL-2 activation | IL-2 activation reporter assay, cell-based qHTS; stimulated with anti-CD3/CD4/CD28 beads; in transgenic mouse T cells | activation, % (series mostly up to about 46 µM) | 360,000 tested, 0.065% active; in the data active = activation above about 50%; inconclusive = mostly about 30% to 49%; also: 0% is about no effect
#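 Quantitative HTS in unstimulated transgenic mouse T cells, with memory T cells as non-tolerant control and PMA/ionomycin as tolerance-bypass control. Compound pretreatment lasted 60 minutes before 18 h bead stimulation; EGFP/DsRed fluorescence read.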
# miR-21 reporter: raises the signal of a miR-21 reporter | HeLa miR-21 FLuc reporter, luciferase, 48 h | Potency, µM (highest dose often 38.3 µM), inactives show at the highest dose reporter change, positive = more light | 340,000 tested, under 10 active | AID 2288; active = well fitted rising curve with a large enough effect; inconclusive = small, poorly fitted or top-dose-only effect; inactive = no such curve, though single readings can be large or run the other way;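 note: % of control where 0% means no effect; miR-21 action dims this reporter so a rising signal means less miR-21 action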
#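 Compounds were titrated across several concentrations (up to approximately 40 uM) and incubated 48 hours with HeLa miR-21-FLuc reporter cells (miR-21 target sequence downstream of FLuc, endogenous miR-21). Readout was firefly luciferase luminescence after lytic detection reagent.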
# * marks the source's active call; other numbers are inactive results; ? = inconclusive; nt = no result given; [ ] = another dose, or the depositor's remark. Unless noted, calls follow the shape of the dose curve; as a rule, active = well fitted curve in the direction sought with a large enough effect; inconclusive = small, poorly fitted or top-dose-only effect, or another doubt; inactive = no such curve, though single readings can be large; an effect the other way counts as inactive or inconclusive.
SMILES	Nrf2 inh	A549 tox	IL2 activator	miR-21 reporter	Nrf2 activator	ClpP mod
Cc1ccc(S(=O)(=O)N(C)S(=O)(=O)c2ccc(C)cc2)cc1	23µM*	4%	0	nt	4%	-6%
Cc1ccc(/C=N/N(C)S(=O)(=O)c2ccc(C)cc2)cc1	26µM*	-1%	-2	9%	0%	-2%
Cc1cccc(NS(=O)(=O)c2ccc3c(c2)C(C)(C)C(=O)N3C)c1	nt	-1%	nt	5%	3%	1%
Cc1sc(-c2cc3ccccc3oc2=O)nc1-c1ccc(Cl)c(Cl)c1	nt	1%	nt	-3%	3%	-11%
Cc1sc(-c2cc3ccccc3oc2=O)nc1-c1ccc(Cl)cc1	nt	4%	nt	-4%	?	32µM*
Cc1oc2ncnc(N3CCCCC3)c2c1C(=O)NCC1CCN(Cc2cccc(F)c2)CC1	?	-2%	nt	-1%	0%	1%
O=C(/C=C/c1ccc(F)cc1)NC(=S)NC1CCCCC1	12µM*	-1%	-1	5%	1%	3%
Cc1ccc2c(C)ccnc2c1	nt	nt	nt	nt	nt	-11%
Cc1ccc(-n2nnnc2SCn2nnc3ccccc3c2=O)c(C)c1	9.2µM*	?	-2	-9%	2%	0%
CCOC(=O)c1ccc(NC(=O)C2CCCN(c3ccc(Sc4ccc(C)cc4)nn3)C2)cc1 (stereo unspecified)	?	-6%	nt	14%	3%	?
COC(=O)C1=C(C)NC(C)=C(C(=O)OC)C1c1ccc(OC(=O)c2ccco2)cc1	-12%	-10%	-1	-9%	6%	18µM*
COC(=O)C1=C(C(=O)OC)[C@@H]2N(C)c3ccccc3[C@@]23C[C@@H](C(=O)OC)N(C(=O)c2cc(C)oc2C)C3=N1	18µM*	-29%	0	23%	-1%	-2%
COC(=O)C1=C(C(=O)OC)[C@@H]2N(C)c3ccccc3[C@@]23C[C@@H](C(=O)OC)N(C(=O)C2CCC2)C3=N1	7%	-2%	-1	-5%	0%	-2%
C=CCN1c2ccccc2[C@]23C[C@@H](C(=O)OC)N(C(=O)c4ccc(Br)cc4)C2=NC(C(=O)OC)=C(C(=O)OC)[C@H]13	?	?	1	9%	0%	-2%
COC(=O)C1=C(C(=O)OC)[C@@H]2N(Cc3ccccc3)c3ccccc3[C@@]23C[C@@H](C(=O)OC)N(C(=O)c2ccc(Br)cc2)C3=N1	16µM*	-24%	-3	5%	-1%	2%

# Retrieved by structure from the list above:
SMILES	Nrf2 inh	A549 tox	IL2 activator	miR-21 reporter	Nrf2 activator	ClpP mod
CCOC(=O)c1ccc(NC(=O)C2CCCN(c3ccc(Sc4ccc(C)cc4)nn3)C2)cc1 (stereo unspecified)	?	-6%	nt	14%	3%	?
Cc1ccc(/C=N/N(C)S(=O)(=O)c2ccc(C)cc2)cc1	26µM*	-1%	-2	9%	0%	-2%

# Returning to the listing, repeating the four entries before the break.
SMILES	Nrf2 inh	A549 tox	IL2 activator	miR-21 reporter	Nrf2 activator	ClpP mod
COC(=O)C1=C(C(=O)OC)[C@@H]2N(C)c3ccccc3[C@@]23C[C@@H](C(=O)OC)N(C(=O)c2cc(C)oc2C)C3=N1	18µM*	-29%	0	23%	-1%	-2%
COC(=O)C1=C(C(=O)OC)[C@@H]2N(C)c3ccccc3[C@@]23C[C@@H](C(=O)OC)N(C(=O)C2CCC2)C3=N1	7%	-2%	-1	-5%	0%	-2%
C=CCN1c2ccccc2[C@]23C[C@@H](C(=O)OC)N(C(=O)c4ccc(Br)cc4)C2=NC(C(=O)OC)=C(C(=O)OC)[C@H]13	?	?	1	9%	0%	-2%
COC(=O)C1=C(C(=O)OC)[C@@H]2N(Cc3ccccc3)c3ccccc3[C@@]23C[C@@H](C(=O)OC)N(C(=O)c2ccc(Br)cc2)C3=N1	16µM*	-24%	-3	5%	-1%	2%
N#CC(C#N)=Cc1cn(-c2ncc(C(F)(F)F)cc2Cl)c2ccccc12	nt	-4%	-1	12%	1%	16µM*
NC(=NCCc1c[nH]c2ccccc12)NS(=O)(=O)c1ccc2ccccc2c1	16µM*	?	-2	15%	5%	-2%
NC(=NCCc1c[nH]c2ccccc12)NS(=O)(=O)c1ccc(F)cc1	-8%	12%	-1	9%	1%	-3%
Cc1nc2nc(-c3ccccc3)[nH]n2c(=O)c1Cc1ccccc1	nt	0%	3	-16%	3%	?
Cc1nc2nc(-c3ccco3)[nH]n2c(=O)c1C	nt	13%	-2	1%	11µM*	-24%
Cc1nc2nc(-c3ccco3)[nH]n2c(=O)c1Cc1ccccc1	nt	-8%	4	-9%	?	28µM*
Brc1ccc(-c2cnc(-c3cccs3)o2)cc1	?	9%	-2	-59%	?	32µM*
c1ccc(-c2cnc(-c3cccnc3)o2)cc1	?	-3%	-2	-63%	?	?
CCOC(=O)c1ccc(NC(=O)/C(C#N)=C/c2ccc(OC)cc2)cc1	9%	-1%	nt	-3%	0%	-1%
Cc1sc(N)c(C#N)c1C	1%	10%	0	-2%	1%	14µM*
COc1cccc(C(=O)Nc2ccccc2C(=O)OCc2cc(=O)n3c4c(sc3n2)CCCC4)c1	nt	-4%	nt	-9%	1%	-16%
O=[N+]([O-])c1ccc(Oc2ccc(S(=O)(=O)N3CCOCC3)cc2)cc1	26µM*	-3%	0	11%	1%	nt
O=[N+]([O-])c1ccc(-c2ccc(S(=O)(=O)N3CCOCC3)cc2)cc1	0%	-2%	1	7%	-1%	1%
COc1cc(C(=O)NCCCNc2nc3cc(C)cc(C)c3cc2C#N)cc(OC)c1OC	-2%	4%	1	-21%	1%	25µM*
Cc1cc(C)c2cc(C#N)c(NCCCNC(=O)c3ccncc3)nc2c1	nt	nt	2	nt	0%	4%

# Next section
SMILES	Nrf2 inh	A549 tox	IL2 activator	miR-21 reporter	Nrf2 activator	ClpP mod
COc1cc(N(C)C)c(OC)cc1/C=C1\C=Cc2ccccc21	nt	nt	nt	nt	nt	-2%
Cc1cccc(N2CCN(S(=O)(=O)c3csc(C(N)=O)c3)CC2)c1C	?	-1%	nt	25%	-1%	0%
c1ccc(C[n+]2cccc(-c3ccccc3)c2)cc1	18µM*	1%	0	15%	0%	-5%
CCOC(=O)c1c(S(=O)(=O)N2CCCC(C(=O)Nc3cccc(Cl)c3)C2)c(C)n(C)c1C (stereo unspecified)	nt	-9%	nt	23%	6%	0%
CC(=O)N1CCc2cc(Br)cc(S(=O)(=O)CCC(=O)N3CCN(c4ccccc4)CC3)c21	-4%[9.27 µM]	2%	nt	2%	-1%	-1%
O=C(/C=C/c1ccc2c(c1)OCO2)NCc1ccco1	20%	7%	-5	-41%	2%	28µM*
CC(C)c1ccccc1NC(=O)COC(=O)CCN1C(=O)/C(=C\C=C\c2ccccc2)SC1=S	10µM*	?	1	27%	9%	nt
O=C(COC(=O)CCN1C(=O)/C(=C\C=C\c2ccccc2)SC1=S)Nc1ccc(Br)cc1	?	-28%	1	23%	-1%	nt
O=C(CCS(=O)(=O)c1ccc(F)cc1)Nc1nc(-c2ccncc2)cs1	-6%	-4%	-1	20%	16µM*	0%
CC(C)(C)c1csc(NC(=O)CCS(=O)(=O)c2ccc(F)cc2)n1	nt	nt	-3	nt	?	1%
O=C(Nc1nc(-c2ccccc2)cs1)c1ccccc1NS(=O)(=O)c1ccc(F)cc1	6.5µM*	?	-3	?	11%	?
CN(C)c1ccc(/C=C\C=C/c2ccnc3ccccc23)cc1	nt	nt	nt	nt	nt	-1%
Cc1cc(N/N=C/c2ccccc2O)c2ccccc2n1	18µM*	-22%	1	4%	1%	1%
COc1ccc2nc(C)cc(N/N=C/c3cccc(OC)c3O)c2c1	-5%	-3%	-4	25%	7%	nt
CCN(CC)Cc1cc(Nc2c3ccccc3nc3c4ccccc4n(C)c23)cc(CN(CC)CC)c1O	?	16µM*	0	nt	?	6%
